Amino acid sequences for entries named in this document (tags omitted). A change or cut given only in a name is not applied to a line headed by its entry.
UniProt P41144: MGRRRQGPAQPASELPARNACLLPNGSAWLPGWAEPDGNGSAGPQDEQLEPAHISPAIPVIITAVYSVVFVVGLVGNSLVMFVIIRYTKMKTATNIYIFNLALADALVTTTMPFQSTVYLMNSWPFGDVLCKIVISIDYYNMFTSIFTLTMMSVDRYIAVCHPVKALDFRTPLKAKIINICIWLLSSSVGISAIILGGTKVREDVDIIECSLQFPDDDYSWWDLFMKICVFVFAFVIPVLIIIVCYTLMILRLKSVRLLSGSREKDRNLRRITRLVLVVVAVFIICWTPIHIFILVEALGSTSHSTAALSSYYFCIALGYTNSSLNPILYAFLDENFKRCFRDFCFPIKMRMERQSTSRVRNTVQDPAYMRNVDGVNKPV
UniProt P97266, whole entry: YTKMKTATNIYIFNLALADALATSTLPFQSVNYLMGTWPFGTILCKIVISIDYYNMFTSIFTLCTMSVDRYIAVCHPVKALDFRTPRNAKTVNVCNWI

According to BindingDB's records for doi:10.1124/jpet.302.1.374 (University of Rochester, 2002):

What was measured:
[1] = target: Kappa-type opioid receptor (Cavia porcellus, UniProt P41144)
Mu-type opioid receptor = Mu-type opioid receptor (Cavia porcellus, UniProt P97266)

C[C@H]1C2Cc3ccc(C(N)=O)cc3[C@@]1(C)CCN2CC1CC1 [8-CAC]
Ki [1]: 0.42 nM
Ki (Mu-type opioid receptor): 0.34 nM
